What is called IC50 is the concentration at which inhibition is half-maximal. A lower IC50 goes with greater potency.

Amino acid sequences for entries named in this document (tags omitted). A change or cut given only in a name is not applied to a line headed by its entry.
UniProt Q9P1W9: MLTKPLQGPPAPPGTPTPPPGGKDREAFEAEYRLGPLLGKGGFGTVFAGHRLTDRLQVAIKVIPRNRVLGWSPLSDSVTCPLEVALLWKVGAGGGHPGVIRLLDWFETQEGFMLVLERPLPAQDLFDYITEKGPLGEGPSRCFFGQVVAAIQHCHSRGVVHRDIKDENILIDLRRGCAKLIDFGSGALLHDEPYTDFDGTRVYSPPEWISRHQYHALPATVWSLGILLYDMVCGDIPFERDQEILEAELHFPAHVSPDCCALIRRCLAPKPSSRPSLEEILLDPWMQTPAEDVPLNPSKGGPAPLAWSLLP
UniProt P11309, whole entry: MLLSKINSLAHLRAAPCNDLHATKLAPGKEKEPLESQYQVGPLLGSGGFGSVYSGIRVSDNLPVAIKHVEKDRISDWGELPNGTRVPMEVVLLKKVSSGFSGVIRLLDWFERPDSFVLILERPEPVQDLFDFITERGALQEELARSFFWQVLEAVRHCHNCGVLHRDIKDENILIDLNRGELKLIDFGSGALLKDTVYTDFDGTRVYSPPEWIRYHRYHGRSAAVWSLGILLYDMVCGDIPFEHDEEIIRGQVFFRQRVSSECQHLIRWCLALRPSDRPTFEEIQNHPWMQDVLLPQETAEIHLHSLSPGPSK

For test [1], the target named is PIM2 (Homo sapiens, UniProt Q9P1W9). Kind of test: Pim-2 kinase IC50, Table 2. Format: biochemical.
Test [2] addresses PIM1 (Homo sapiens, UniProt P11309). The test can be described thus: Pim-1 protein kinase assay (Procedure 1), Table 1. Format: biochemical. Further details: purchased Upstate 14-573.

Molecules are shown by their SMILES.

`COc1cccc(/C=C2\SC(=O)NC2=O)c1` [Compound D6] gave an IC50 in test [1] of 40 nM.

In test [2], `O=C1NC(=O)/C(=C/c2ccc(F)cc2)S1` [Compound D9] gave an IC50 of 13 ± 10 nM.

Consider `O=C1NC(=O)/C(=C/c2ccc(Br)cc2)S1` [Compound D11], for which the IC50 in test [1] was 90 ± 40 nM. For the compound `Cc1ccc(/C=C2\SC(=O)NC2=O)cc1` [Compound D12], in test [2], 60 ± 20 nM corresponded to half-maximal inhibition (IC50). Still for that read-out and setting: to `O=C1NC(=O)/C(=C/c2ccc(OC(F)(F)F)cc2)S1` [Compound D19] belongs 300 ± 200 nM.

The values above are taken from patent US20110263664A1, “Inhibitors of PIM-1 Protein Kinases, Compositions and Methods for Treating Prostate Cancer” (MUSC FOUNDATION FOR RESEARCH DEVELOPMENT, priority 2007, published 2011).
